This passage reports activity change, negative = cytotoxicity results from PubChem BioAssay AID1347076 (National Center for Advancing Translational Sciences (NCATS), 2019).

The list shows a part of the results, in another mix than the full data. Inconclusive results are not listed. Calls of active or inactive are those of the source. Calls come from the whole dose curve; as a rule, active = well fitted cell-killing curve with a large enough effect; inconclusive = small, poorly fitted or top-dose-only effect, or effect the other way; inactive = flat fitted curve, though single readings scatter.
% is set by controls: 0 for no effect and ±100 for the full control effect.

A short description of this assay: qHTS assay for MDR1-selective chemotherapeutics: Primary screen using the drug-selected MDR subline cells KB-V1. Note: nearly all actives have a fitted effect of over 60% in size. Conditions: KB-V1 MDR cells viability, CellTiter-Glo, 72 h; at 46.1 µM (top of the series). The text has this:
A prime difficulty in effectively treating cancer is the development of cellular resistance to multiple structurally unrelated anticancer drugs, a phenomenon known as multidrug resistance (MDR). […] Numerous strategies to overcome P-gp-mediated MDR have been explored, including the design of drugs that evade recognition and efflux, and development of inhibitors to block efflux and restore drug accumulation. […] An alternative approach is to exploit resistance by identifying drugs that target MDR cells over the non-resistant parental cells from which they were selected. […] The development of MDR1-selective agents represents a new strategy for resolving multidrug resistance, as it remains a long-standing clinical challenge for cancer chemotherapy.
Our goal is to identify compounds that selectively kill P-gp-expressing MDR cells. We will identify MDR1-selective compounds by comparing toxicity of compounds in the screening library against parental, drug-naive (KB-3-1) adenocarcinoma cells as well as their drug-selected MDR sub-line (KB-V1). The differential toxicity of compounds against these two cell lines will be used to identify MDR1-selective compounds, whose cytotoxicity is potentiated, rather than diminished, by P-gp expression. This assay will be utilized to conduct a quantitative high-throughput screen (qHTS) in collaboration with the NIH Chemical Genomics Center to identify selective agents, and probe hits arising from the screen will be validated using secondary assays and characterized through a well-established follow-up research program. This screen was run against the entire NCGC library collection of about 400,000 compounds.
NIH Molecular Libraries Probe Production Network [MLPCN]
NIH Chemical Genomics Center [NCGC]
PI: Michael Gottesman, National Cancer Institute, NIH
Briefly, 5 microL of media containing either KB-V1 cells (columns 1-2, 4-48) are dispensed into Greiner white, treated solid-bottom 1536-well assay plates (media-only control is added to column 3). Compounds are then transferred via Kalypsys pin tool equipped with 1536-pin array (10 nL slotted pins, V&P Scientific, San Diego, CA). Following addition of compound, the plates are incubated at 37 degrees C for 72 hours. CellTiter-Glo (2.5 µL/well) is then added, and the plates are read in a ViewLux reader (Perkin-Elmer, clear luminescence filter, 1 second exposure, 1x binning) following a 10 minute incubation. All cells are dispensed in DMEM phenol-red free media containing 10% FBS.
Library plates were screened starting from the lowest and proceeding to the highest concentration. Vehicle-only plates, with DMSO being pin-transferred to columns 5-48, will be inserted uniformly at the beginning and the end of each library in order to monitor and record any shifts in the background, which can be affected by reagent dispensers or loss in enzyme activity over time. Screening data will be corrected, normalized, and concentration-effect relationships will be derived by using publicly-available NCGC, NCATS curve fitting algorithms (http://ncgc.nih.gov/pub/openhts).
A general note: In qHTS, concentration-response curves come from the screen itself.
In the case of `COc1ccccc1OP(C)(=O)Nc1c(C)n(C)n(-c2ccccc2)c1=O` (configuration not stated), the activity change, negative = cytotoxicity is inactive: 12.3%.
On to `O=C(OCCCN1CCCC1)C(O)(c1ccccc1)C1CCCCC1` (configuration not stated), for which the activity change, negative = cytotoxicity is inactive: 0.252%.
The figure for `CP(=O)(Oc1ccccc1)N1CCOC1=O` (configuration not stated) is inactive: 3.6%; for `CCc1ccc(OP(C)(=O)Nc2cccnc2)cc1` (configuration not stated) it is inactive: 0.0545%; for `CCN(CC)CC(O)COC(=O)C(O)(c1ccccc1)C1CCCCC1` (configuration not stated) it is inactive: -12.5%.
The figure for `COc1ccc(OP(C)(=O)Nc2ccc(Br)cc2)cc1` (configuration not stated) is inactive: -28.1%; for `COc1ccccc1OP(C)(=O)Nc1ccccc1Br` (configuration not stated) it is inactive: -19.2%.
As to `CC(C)(C)c1ccc(OP(C)(=O)O)cc1`, the activity change, negative = cytotoxicity was inactive: 10.4%.
With `CP(=O)(Nc1ccc(Cl)cc1)Oc1ccc(F)cc1` (configuration not stated), the activity change, negative = cytotoxicity is inactive: -20.4%.
For `CP(=O)(OC12CC3CC(CC(C3)C1)C2)OC12CC3CC(CC(C3)C1)C2` the value was inactive: 1.1%; for `Nc1ccc2c(ccc3cccnc32)n1.O=[N+]([O-])c1cc([N+](=O)[O-])c(O)c([N+](=O)[O-])c1`, inactive: 3.12%; for `COc1ccccc1OP(C)(=O)Nc1ccc(C)c(C)c1` (configuration not stated), inactive: 3.03%.
The figure for `COc1ccc(OP(C)(=O)Nc2ccccc2Br)cc1` (configuration not stated) is inactive: -6.51%; for `CCCCCCCCCCCCCCCC1C[N+](C)(C)CCOP(C)(=O)O1` (configuration not stated) it is inactive: -23.2%.
For `CP(=O)(Nc1ccc(Cl)cc1Cl)Oc1ccccc1` (configuration not stated) the value was inactive: 14.5%; for `CP(=O)(OCCOc1ccccc1)OCCOc1ccccc1`, inactive: -4.78%; for `COc1ccc(OP(C)(=O)Nc2ccccn2)cc1` (configuration not stated), inactive: -0.133%.
On to `CN(C)CCOC(=O)C(O)(c1ccccc1)C1CCCC1` (configuration not stated), for which the activity change, negative = cytotoxicity was inactive: 9.78%.
The figure for `COc1ccccc1OP(C)(=O)Nc1ccc(Br)cc1` (configuration not stated) is inactive: -10.8%; for `CP(=O)(Nc1ccccn1)Oc1ccccc1` (configuration not stated) it is inactive: -4.15%; for `COc1ccccc1OP(C)(=O)Nc1ccc(C)cc1C` (configuration not stated) it is inactive: -12.9%.
For `CCc1ccc(OP(C)(=O)O)cc1` the value was inactive: 23.7%; for `Cc1c(NP(C)(=O)Oc2ccc(C(C)C)cc2)c(=O)n(-c2ccccc2)n1C` (configuration not stated), inactive: 15.6%.
For the compound `CP(=O)(Nc1ccccc1F)Oc1ccccc1` (configuration not stated), the activity change, negative = cytotoxicity is inactive: -1.85%.
The figure for `CP(=O)(Nc1ccccc1)Oc1ccc(F)cc1` (configuration not stated) is inactive: -1.21%; for `CCCCCOc1ccc(NP(C)(=O)Oc2ccc(Cl)cc2Cl)cc1` (configuration not stated) it is inactive: 0%; for `Cc1c([N+](=O)[O-])cc([N+](=O)[O-])c(Br)c1[N+](=O)[O-]` it is inactive: 3.25%.
Turning to `CCN(CC)CCCOC(=O)C(O)(c1ccccc1)C1CCCCC1` (configuration not stated), the activity change, negative = cytotoxicity is inactive: -2.53%.
For `CN(C)CCOC(=O)C(O)(c1ccccc1)C1CCCCC1` (configuration not stated) the value was inactive: 9.72%.
Turning to `COc1ccc(NP(C)(=O)Oc2ccccc2OC)cc1` (configuration not stated), the activity change, negative = cytotoxicity was inactive: 9.51%.
The figure for `COc1ccc(OP(C)(=O)Nc2cccc(Br)c2)cc1` (configuration not stated) is inactive: -11.2%.
For `Cc1c(C(c2ccc3c(c2)OCO3)c2c(C)n(C)n(-c3ccccc3)c2=O)c(=O)n(-c2ccccc2)n1C.O=[N+]([O-])c1cc([N+](=O)[O-])c(O)c([N+](=O)[O-])c1` the value was inactive: -0.987%; for `O=[N+]([O-])c1ccc(OP2(=O)COCCO2)cc1` (configuration not stated), inactive: -10.6%.
As for `CCOP(C)(=S)SCC(=O)NC(C)(CC)C(=O)O` (configuration not stated), the activity change, negative = cytotoxicity was inactive: 4.26%.
The figure for `CP(=O)(Nc1ccc(SC(F)(F)F)cc1)Oc1ccc(F)cc1` (configuration not stated) is inactive: -2.87%.
The figure for `Cc1ccccc1NP(C)(=O)Nc1ccccc1C` is inactive: -4.36%; for `O=[N+]([O-])c1cc([N+](=O)[O-])c(C(F)(F)F)c([N+](=O)[O-])c1O` it is inactive: -14%; for `CP(=O)(Nc1ccc2c(c1)OCCO2)Oc1ccccc1` (configuration not stated) it is inactive: -1.51%.
For `CN(Cc1cccnc1)C(=O)COc1ccc(Cl)c(Cl)c1.O=[N+]([O-])c1cc([N+](=O)[O-])c(O)c([N+](=O)[O-])c1` the value was inactive: 2.33%; for `O=[N+]([O-])c1cc([N+](=O)[O-])c(-n2nnc3ccccc32)c([N+](=O)[O-])c1`, inactive: -4.13%.
Take `Cc1nc2ccc3ccccc3c2s1.O=[N+]([O-])c1cc([N+](=O)[O-])c(O)c([N+](=O)[O-])c1`: the activity change, negative = cytotoxicity was inactive: 6.15%.
The figure for `CC1=C2N=C(C=C3N=C(C(C)=C4[N-][C@@](C)([C@@H]5N=C1[C@](C)(CCC(=O)NC[C@@H](C)OP(=O)([O-])O[C@H]1[C@@H](O)[C@@H](n6cnc7cc(C)c(C)cc76)O[C@@H]1CO)[C@H]5CC(N)=O)[C@@](C)(CC(N)=O)[C@@H]4CCC(N)=O)[C@@](C)(CC(N)=O)[C@@H]3CCC(N)=O)C(C)(C)[C@@H]2CCC(N)=O.[C-]#N.[Co+3]` is inactive: 12.4%.
The figure for `O=[N+]([O-])c1cc([N+](=O)[O-])c(Nc2nnnn2CCO)c([N+](=O)[O-])c1` is inactive: -16.4%.
For `COc1ccc(-c2ccccn2)cc1.O=[N+]([O-])c1cc([N+](=O)[O-])c(O)c([N+](=O)[O-])c1`, the activity change, negative = cytotoxicity was inactive: -3.66%.
For `CCCOc1ccc(NP(C)(=O)Oc2ccc(Cl)cc2)cc1` (configuration not stated) the value was inactive: 9.4%.
For `CP(=O)(Nc1ccc(SC(F)(F)F)cc1)Oc1ccccc1` (configuration not stated) the value was inactive: -10.2%; for `CN1CCCCC1COC(=O)C1(O)c2ccccc2CCc2ccccc21` (configuration not stated), inactive: 0%; for `COc1ccccc1OP(C)(=O)Nc1c(C)cccc1C` (configuration not stated), inactive: -1.33%.
Consider `CC1=NCCc2c1[nH]c1ccccc21.O=[N+]([O-])c1cc([N+](=O)[O-])c(O)c([N+](=O)[O-])c1`, for which the activity change, negative = cytotoxicity was inactive: -24.8%.
For `Cc1cc(C)cc(OP(C)(=O)Nc2ccc(C)cc2C)c1` (configuration not stated) the value was inactive: -2.56%; for `Cc1ccc(C)c(NP(C)(=O)Oc2ccccc2)c1` (configuration not stated), inactive: 5.81%.
As to `Cc1cc(C)cc(OP(C)(=O)Nc2ccccn2)c1` (configuration not stated), the activity change, negative = cytotoxicity is inactive: 6.83%.
With `CP(=O)(Nc1cccc(Br)c1)Oc1ccccc1` (configuration not stated), the activity change, negative = cytotoxicity is inactive: 0%.
As to `CCN(CC)CCCOC(=O)C(O)(c1ccccc1)c1ccccc1`, the activity change, negative = cytotoxicity was inactive: -2.21%.
On to `COc1ccccc1-c1ccccn1.O=[N+]([O-])c1cc([N+](=O)[O-])c(O)c([N+](=O)[O-])c1`, for which the activity change, negative = cytotoxicity was inactive: -3.59%.
Regarding `O=[N+]([O-])c1ccc2c(c1)C=Nc1ccccc1O2`, the activity change, negative = cytotoxicity was inactive: -17.8%.
Regarding `Cc1cccc(C)c1OP(C)(N)=O` (configuration not stated), the activity change, negative = cytotoxicity was inactive: -4.17%.
For `O=[N+]([O-])c1cc([N+](=O)[O-])c(Nc2cccnc2)c([N+](=O)[O-])c1` the value was inactive: -23.5%; for `COc1ccccc1OP(C)(=O)Nc1cc(Cl)ccc1C` (configuration not stated), inactive: 0%; for `COc1ccc(OP(C)(=O)Nc2cccc(F)c2)cc1` (configuration not stated), inactive: 3.18%.
For `Cc1ccc(NP(C)(=O)Oc2ccccc2)c(C)c1` (configuration not stated) the value was inactive: 5.28%; for `CCOC(=O)c1ccc(NP(C)(=O)Oc2ccccc2)cc1` (configuration not stated), inactive: -29.5%.
The figure for `COc1ccccc1OP(C)(=O)Nc1ccccc1` (configuration not stated) is inactive: -2.81%; for `CP(=S)(Nn1cnnc1)Oc1ccccc1` (configuration not stated) it is inactive: -12.6%; for `CP(=O)(NC(=O)Nc1ccccc1)Oc1ccccc1` (configuration not stated) it is inactive: 12.4%.
In the case of `Cc1cc(C)cc(OP(C)(=O)Nc2ccc(SC(F)(F)F)cc2)c1` (configuration not stated), the activity change, negative = cytotoxicity is inactive: 4.52%.
For `CP(=O)(Nc1ccc(SC(F)(F)F)cc1)Oc1ccc(Cl)cc1` (configuration not stated) the value was inactive: -0.347%.
The figure for `Cc1cccc(C)c1OP(C)(=O)Nc1ccc(SC(F)(F)F)cc1` (configuration not stated) is inactive: -10.5%.
For `CP(=O)(Oc1ccccc1)OC(c1ccccc1)C(F)(F)F` (configuration not stated) the value was inactive: -1.94%.
For the compound `CP(=O)(Nc1ccccn1)Oc1ccc(Cl)cc1` (configuration not stated), the activity change, negative = cytotoxicity was inactive: 7.78%.
For `O=[N+]([O-])c1cc([N+](=O)[O-])c(O)c([N+](=O)[O-])c1.c1ccc(Oc2ccncc2)cc1` the value was inactive: 22.3%; for `CCOP(C)(=S)SCC(=O)NC(C)C(=O)O` (configuration not stated), inactive: 8.52%.
